{"source": "paper PMC10892041", "about": "“Vanadium Complexes with Thioanilide Derivatives of Amino Acids: Inhibition of Human Phosphatases and Specificity in Various Cell Models of Metabolic Disturbances” (Pharmaceuticals, 2024)", "key": {"[1]": {"tested_on": "hepatocytes HepG2", "experiment": "Inhibition of hepatic gluconeogenesis (glucose synthesis)", "conditions": "known inhibitors of gluconeogenesis; concentration not given"}, "[2]": {"tested_on": "hepatocytes HepG2", "conditions": "10 µg/mL"}}}
{"substance": "insulin", "values": [{"measurement": "Inhibition of glucose synthesis by hepatocytes, experimental control compounds", "setting": "[1]", "value": "showed inhibition of glucose synthesis"}, {"measurement": "Reversal of insulin resistance of hepatocytes (hyperinsulinemia model)", "setting": "[2]", "value": "reversed"}]}
